In PubChem BioAssay AID540295 (The Scripps Research Institute Molecular Screening Center, 2011) one finds inhibition data, which are given here for 23 molecules.

Amino acid sequences for entries named in this document (tags omitted).
UniProt P32245, whole entry: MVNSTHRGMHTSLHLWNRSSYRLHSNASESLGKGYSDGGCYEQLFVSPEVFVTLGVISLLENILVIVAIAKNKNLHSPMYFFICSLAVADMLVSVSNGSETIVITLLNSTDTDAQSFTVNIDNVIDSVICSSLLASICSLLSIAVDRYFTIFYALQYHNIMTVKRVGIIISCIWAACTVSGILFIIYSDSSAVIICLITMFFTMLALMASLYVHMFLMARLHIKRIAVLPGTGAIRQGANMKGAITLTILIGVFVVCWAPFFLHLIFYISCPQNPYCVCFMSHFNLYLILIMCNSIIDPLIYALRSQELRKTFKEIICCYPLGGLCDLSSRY

Only a part is listed here, and it is no random draw. Some salts and complexes are drawn in separate pieces, as the source files them; their charges need not balance. Calls of active or inactive are those of the source.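 The calls were made as follows: active = inhibition above its plate's cutoff, the mean of tested wells on that plate plus 3 SD (cut at about 29% in these data); inactive = the rest.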

Broadly, the inhibition is the change of the read-out against control, counted positive when it falls.

This experiment concerns the target Melanocortin receptor 4 (Homo sapiens) (UniProt P32245). Briefly: blockers of MC4R Gs-cAMP response – cell-based, TR-FRET, antagonist arm of biased-ligand search, primary screen (AID 540295).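 Also: 0% = Melanotan II alone and 100% = Melanotan II plus saturating MCL0020.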 The conditions noted are these: MC4R-expressing cells, MTII-stimulated cAMP, LANCE TR-FRET; at 6.5 µM; hits give high values. (In TR-FRET formats the signal depends on donor and acceptor labels being close together.)
As for `O=[N+]([O-])c1ccc(OP2(=O)COCCO2)cc1` (stereo not drawn), the inhibition was inactive: 8.95%. With `O=[N+]([O-])c1cc([N+](=O)[O-])c(NCC2CCS(=O)(=O)C2)c([N+](=O)[O-])c1` (stereo not drawn), the inhibition was inactive: 16.5%. For `Cc1cc(-c2cccc3ccccc23)c(C)cn1.O=[N+]([O-])c1cc([N+](=O)[O-])c(O)c([N+](=O)[O-])c1`, the inhibition is inactive: -5.86%. As for `Cc1c(C(c2ccc3c(c2)OCO3)c2c(C)n(C)n(-c3ccccc3)c2=O)c(=O)n(-c2ccccc2)n1C.O=[N+]([O-])c1cc([N+](=O)[O-])c(O)c([N+](=O)[O-])c1`, the figure is inactive: 12.1%; as for `COc1ccc(OP(C)(=O)Nc2cccc(Br)c2)cc1` (stereo not drawn), inactive: -5.35%.

For `CN(C)CCOC(=O)C(O)(c1ccccc1)C1CCCCC1` (stereo not drawn), the inhibition was inactive: 2.54%. As for `COc1ccc(NP(C)(=O)Oc2ccccc2OC)cc1` (stereo not drawn), the figure is inactive: 7.62%; as for `CP(=O)(Nc1ccc2c(c1)OCCO2)Oc1ccccc1` (stereo not drawn), inactive: 3.3%; as for `Cc1ccccc1NP(C)(=O)Nc1ccccc1C`, inactive: -0.07%.

On to `CP(=O)(Nc1ccc(SC(F)(F)F)cc1)Oc1ccc(F)cc1` (stereo not drawn), for which the inhibition was inactive: 17.8%. In the case of `CCOP(C)(=S)SCC(=O)NC(C)(CC)C(=O)O` (stereo not drawn), the inhibition is inactive: 10%. To `O=C(OC1CN2CCC1CC2)c1ccc([N+](=O)[O-])cc1` (stereo not drawn) belongs inactive: 21.2%; to `O=C(OCCN1CCN(CCOCc2ccccc2)CC1)C(O)(c1ccccc1)c1ccccc1`, inactive: -2.68%; to `COc1ccc2c(c1O)-c1c(O)c(OC)cc3c1[C@H](C2)[N+](C)(C)CC3.O=[N+]([O-])c1cc([N+](=O)[O-])c([O-])c([N+](=O)[O-])c1[O-]`, inactive: 1.75%.

Regarding `O=[N+]([O-])c1cc([N+](=O)[O-])c(Nc2ccc(Cl)cc2)c([N+](=O)[O-])c1`, the inhibition is inactive: 18.8%.

With `CP(=O)(Nc1ccccc1F)Oc1ccccc1` (stereo not drawn), the inhibition was inactive: 1.36%. Take `CC(C)c1ccc(OP(C)(=O)Nc2ccc(SC(F)(F)F)cc2)cc1` (stereo not drawn): the inhibition was inactive: 7.41%. To `Cc1c([N+](=O)[O-])cc([N+](=O)[O-])c(Br)c1[N+](=O)[O-]` belongs inactive: 4.92%; to `CCN(CC)CCCOC(=O)C(O)(c1ccccc1)C1CCCCC1` (stereo not drawn), inactive: 0.85%; to `CP(=O)(Nc1ccccc1)Oc1ccc(F)cc1` (stereo not drawn), inactive: 8.8%.

Take `CCCCCOc1ccc(NP(C)(=O)Oc2ccc(Cl)cc2Cl)cc1` (stereo not drawn): the inhibition is inactive: -3.66%.

On to `O=[N+]([O-])c1cc([N+](=O)[O-])c(OC2CCCCC2O)c([N+](=O)[O-])c1` (stereo not drawn), for which the inhibition is inactive: 15.6%. As for `CCOC(=O)c1ccc(NP(C)(=O)Oc2ccc(F)cc2)cc1` (stereo not drawn), the figure is inactive: 9.92%.
